{"source": "paper PMC2653091", "about": "(Journal of medicinal chemistry, 2009)", "tested_on": "endogenously expressed muscarinic receptors", "conditions": "HEK293mNPSR cells, control"}
{"compound": "C[N+](C)(C)CCOC(N)=O", "note": "[Carbachol]", "values": [{"measurement": "Carbachol Emax", "value": "305 ± 31", "unit": "% over basal"}, {"measurement": "Carbachol pEC50", "value": 5.58}]}
